The subject of assay [1] is Aha1 mRNA in LeY positive MCF7 cells. Description: bDNA assay of bispecific / DIG-siRNA / CPP-PolyArg complexes. Type of assay: cell-based, human. Conditions: MCF7, 3 h plus 21 hours. The method, then:
To analyze these complexes for their ability to specifically induce mRNA silencing in target cells, we compared targeted siRNA transfection of complexes that contained either a <LeY>-<DIG> and a <CD22>-<DIG> bispecific antibody, which were charged with a DIG labeled siRNA targeting either Aha1 or as a control luciferase. These complexes were formed by pre-incubation Dig-siRNA with <Dig> bispecific at room temperature for 30 minutes, followed by addition of the CPP-PolyArg (siRNA binding) entity to generate the full transfection competent complex. The entire complex was incubated for further 30 minutes at room temperature before adding to LeY positive MCF7 cells for a duration of three hours in Optimem medium. After subsequent incubation in growth medium for another 21 hours, the cells were lysed, and their mRNA content was analyzed using a bDNA assay.

A further assay deals with AHA1 mRNA in MCF-7 cells. Description: AHA1 mRNA knockdown by DIG-labeled siRNA-lipid nanoparticles (bDNA). Particulars: no siRNA, only antibody (3.24 nM), 12 h. It counts as cell-based, human. The method, then:
(iii) Complexation of DIG-labeled siRNA-lipid nanoparticles with <Target-DIG> bispecific antibodies. DIG-labeled siRNA-lipid nanoparticles containing 1 pmol of AHA1-, DIG-coupled AHA1-, or luciferase (LUC)-siRNAs were incubated with 3.24 pmol of bispecific antibodies directed against either the tumor-associated LewisY oligosaccharide and DIG <LeY-DIG> or against the sialic acid-binding transmembrane protein, CD22, and DIG <CD22-DIG> or with Dulbecco's Phosphate Buffered Saline (D-PBS) (Invitrogen, Carlsbad, Calif.) in a final volume of 200 μl Opti-MEM® vitrogen GmbH, Darmstadt, Germany) at RT for 30 min.
(iv) Evaluation of targeting- and mRNA silencing properties of DIG-labeled siRNA-lipid nanoparticles in combination with <Target-DIG> bispecific antibodies in vitro; MCF-7 cells were seeded on a 96-well plate with a density of 15,000 cells/well in 80 μl medium (RPMI 1640 Medium, 10% fetal calf serum, 100 U/ml penicillin/streptomycin; Biochrom AG, Berlin, Germany) and incubated overnight in a cell incubator (37° C., 95% H2O, 5% CO2). […] After incubation, cells were lysed and AHA1- and GAPDH-mRNA concentrations were quantified using a commercially available bDNA-quantification system (Affymetrix Inc., Fremont, Calif.). […]

B1: CD22-DIG: bispecific antibody binding CD22 and digoxigenin; SEQ. ID NO. 13 or 55 and 14 or 56 (antibody)
heavy: EVQLVESGGGLVKPGGSLKLSCAASGFAFSIYDMSWVRQTPEKRLEWVAYISSGGGTTYYPDTVKGRFTISRDNAKNTLYLQMSSLKSEDTAMYYCARHSGYGSSYGVLFAYWGQGTLVTVSAASTKGPSVFPLAPSSKSTSGGTAALGCLVKDYFPEPVTVSWNSGALTSGVHTFPAVLQSSGLYSLSSVVTVPSSSLGTQTYICNVNHKPSNTKVDKKV[human IgG1 Fc not shown]GGGGSGGGGSQVQLVESGGGLVKPGGSLRLSCAASGFTFSDYAMSWIRQAPGKCLEWVSSINIGATYIYYADSVKGRFTISRDNAKNSLYLQMNSLRAEDTAVYYCARPGSPYEYDKAYYSMAYWGQGTTVTVSSGGGGSGGGGSGGGGSGGGGSDIQMTQSPSSLSASVGDRVTITCRASQDIKNYLNWYQQKPGKAPKLLIYYSSTLLSGVPSRFSGSGSGTDFTLTISSLQPEDFATYYCQQSITLPPTFGCGTKVEIK
light: DIQMTQTTSSLSASLGDRVTISCRASQDISNYLNWYQQKPDGTVKLLIYYTSILHSGVPSRFSGSGSGTDYSLTISNLEQEDFATYFCQQGNTLPWTFGGGTKLEIKTVAAPSVFIFPPSDEQLKSGTASVVCLLNNFYPREAKVQWKVDNALQSGNSQESVTEQDSKDSTYSLSSTLTLSKADYEKHKVYACEVTHQGLSSPVTKSFNRGEC
modifications: humanized <CD22> <dig> H-chain, disulfide- stabilized; humanized <CD22> <dig> L-chain
For B1, the “Aha1 mRNA silencing” value in assay [1] is recorded as “reduced RNAi compared to the effects that could be reached with the <LeY-Dig> bispecific antibody”. The “relative AHA1-mRNA concentration” value in the assay on AHA1 mRNA in MCF-7 cells is 96.3%.

(Values after patent US9574016B2, “Complex of bi-specific antibody and digoxigenin conjugated to a therapeutic or diagnostic agent” (Hoffmann-La Roche Inc., priority 2009, dated 2017).)
